From ChEMBL document CHEMBL1147581, “Development of novel lipid-peptide hybrid compounds with antibacterial activity from natural cationic antibacterial peptides” (Bioorg Med Chem Lett, 2004)
Values after ≈ are worked out from the molar mass of the structure shown.

Assays:
Type in all cases: functional
Escherichia coli = assay: Minimum inhibitory concentration against Escherichia coli ATCC 25922
Staphylococcus aureus = assay: Minimum inhibitory concentration against Staphylococcus aureus ATCC 6538
Pseudomonas aeruginosa = assay: Minimum inhibitory concentration against Pseudomonas aeruginosa ATCC 9027

CC[C@H](C)[C@H](NC(=O)CN)C(=O)NCC(=O)N[C@@H](C)C(=O)N[C@H](C(=O)N[C@@H](CC(C)C)C(=O)N[C@@H](CCCCN)C(=O)N[C@H](C(=O)N[C@@H](CC(C)C)C(=O)N[C@H](C(=O)N[C@H](C(=O)NCC(=O)N[C@@H](CC(C)C)C(=O)N1CCC[C@H]1C(=O)N[C@@H](C)C(=O)N[C@@H](CC(C)C)C(=O)N[C@H](C(=O)N[C@@H](CO)C(=O)N[C@@H](Cc1c[nH]c2ccccc12)C(=O)N[C@H](C(=O)N[C@@H](CCCCN)C(=O)N[C@@H](CCCNC(=N)N)C(=O)N[C@@H](CCCCN)C(=O)N[C@@H](CCCNC(=N)N)C(=O)N[C@@H](CCC(N)=O)C(=O)N[C@@H](CCC(N)=O)C(N)=O)[C@@H](C)CC)[C@@H](C)CC)[C@@H](C)O)[C@@H](C)O)C(C)C)C(C)C [MELITTIN]
MIC (Escherichia coli): 3.12 µg/mL (≈ 1.1 µM) | MIC (Staphylococcus aureus): 3.12 µg/mL (≈ 1.1 µM) | MIC (Pseudomonas aeruginosa): 1.56 µg/mL (≈ 0.548 µM)
